Tested on: NIH/Swiss mice
Settings: dose 16.7 nmol/Kg i.p.

Substance: HGEGAFTSDLSKQLEEEAVRLFIEFLKN-NH2 [Compound 12, reference compound]
- Mouse Food Intake, % basal, 180 min: −53 % basal
